Laboratory results: publication PMC11906766 (Scientific Reports, 2025)

Chains of the proteins cited; added tags and fusions are not shown.
UniProt P27338, whole entry: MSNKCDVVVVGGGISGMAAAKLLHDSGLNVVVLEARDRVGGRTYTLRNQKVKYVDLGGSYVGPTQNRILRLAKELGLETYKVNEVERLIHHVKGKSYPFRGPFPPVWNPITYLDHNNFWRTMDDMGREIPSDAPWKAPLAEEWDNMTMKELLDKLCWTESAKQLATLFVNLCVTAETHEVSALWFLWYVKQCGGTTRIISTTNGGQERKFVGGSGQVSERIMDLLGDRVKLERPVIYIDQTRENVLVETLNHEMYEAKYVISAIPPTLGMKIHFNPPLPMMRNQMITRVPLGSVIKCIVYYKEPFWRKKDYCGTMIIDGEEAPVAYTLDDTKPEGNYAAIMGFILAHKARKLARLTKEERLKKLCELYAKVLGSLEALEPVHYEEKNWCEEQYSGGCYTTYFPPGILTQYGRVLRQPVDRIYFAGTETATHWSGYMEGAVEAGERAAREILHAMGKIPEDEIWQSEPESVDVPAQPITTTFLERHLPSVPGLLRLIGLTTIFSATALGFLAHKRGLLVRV

How the values were obtained:
MAO-B [1] = target: T1, MAO-B (Homo sapiens, UniProt P27338); assay: hMAO-B inhibition assay; assay type: biochemical
MAO-B [2] = target: T1, MAO-B

Compound | Selectivity Index (SI) (MAO-B [1]) | residual MAO-B activity after dialysis (MAO-B [2]) | residual MAO-B activity, undialysis group (MAO-B [2])
O=C(C=Cc1ccccc1)c1ccccc1 [Compound 1, 1,3-diphenyl-2-propen-1-one, reference compound] | > 3 | – | –
C[C@H](NCc1ccc(OCc2cccc(F)c2)cc1)C(N)=O [Safinamide, safinamide] | – | 90.6 | 47.1
